Measured values taken from patent US10106542B2, “Substituted 6,7-dihydropyrazolo[1,5-a]pyrazines as negative allosteric modulators of mGluR2 receptors” (Janssen Pharmaceutica NV, priority 2013, dated 2018).

The chains behind the UniProt entries cited, without tags or fusion partners. Residues count along the entry.
UniProt Q14416, 19-872 limits assumed: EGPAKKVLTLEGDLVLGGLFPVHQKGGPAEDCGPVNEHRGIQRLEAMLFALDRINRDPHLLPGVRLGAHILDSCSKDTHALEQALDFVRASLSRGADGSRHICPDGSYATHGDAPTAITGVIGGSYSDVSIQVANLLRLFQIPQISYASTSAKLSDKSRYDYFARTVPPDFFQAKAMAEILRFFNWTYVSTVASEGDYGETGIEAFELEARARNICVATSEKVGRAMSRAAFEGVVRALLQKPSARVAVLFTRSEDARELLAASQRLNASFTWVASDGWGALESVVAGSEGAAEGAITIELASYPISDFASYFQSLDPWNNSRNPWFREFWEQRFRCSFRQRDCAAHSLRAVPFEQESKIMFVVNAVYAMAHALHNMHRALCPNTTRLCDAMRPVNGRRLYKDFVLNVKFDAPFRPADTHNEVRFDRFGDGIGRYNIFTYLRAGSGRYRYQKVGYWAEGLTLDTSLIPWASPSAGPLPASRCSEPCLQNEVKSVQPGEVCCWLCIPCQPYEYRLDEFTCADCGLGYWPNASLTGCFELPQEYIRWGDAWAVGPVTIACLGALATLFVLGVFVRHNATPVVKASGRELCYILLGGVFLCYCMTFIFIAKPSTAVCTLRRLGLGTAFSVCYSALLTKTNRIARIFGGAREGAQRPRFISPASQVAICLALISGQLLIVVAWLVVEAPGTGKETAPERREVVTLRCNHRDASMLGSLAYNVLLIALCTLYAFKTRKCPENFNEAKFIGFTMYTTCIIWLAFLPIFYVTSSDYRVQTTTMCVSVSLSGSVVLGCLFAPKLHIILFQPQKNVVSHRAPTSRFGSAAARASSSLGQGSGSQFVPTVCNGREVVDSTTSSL

How the values were obtained:
human mGlu2 receptor = human mGlu2 receptor (Homo sapiens, UniProt Q14416); assay: [35S]GTPγS binding assay (mGluR2 negative allosteric modulation); conditions: for GTPγS - hmGluR2 anGT pIC50: membranes from CHO cells transfected with human mGlu2 receptor, glutamate 60 μM, pIC50 = −log IC50 (M); for GTPγS - hmGluR2 anGT Emax: relative maximal effect: maximal % inhibition relative to the control glutamate response
rats = assay: Reversal of the effect of the mGluR2 PAM JNJ-42153605 on scopolamine-induced hyperlocomotion; conditions: Route SC, test compound 60 min before recording, criterion total distance >1500 cm
Protocol: 2) Reversal of the Effect of the mGluR2 PAM JNJ-42153605 on Scopolamine-Induced Hyperlocomotion Apparatus
Motor activity was measured in microprocessor-based motor activity arenas (closed gray PVC cylinders with a height of 39 cm and a diameter of 31 cm). Each arena was placed on an infrared LED (8×8 LEDs) lit box (white PVC squared box; 40×40 cm^2; height 12.5 cm. An infrared-sensitive tube camera and a white light source were mounted to the ceiling above the observation chamber to track the animal. The total distance traveled (cm) was recorded and analyzed using the Noldus Ethovision XT Video Tracking System (Version 7.0.418; Noldus, Wageningen, The Netherlands). The intensity of the light within the activity cages (measured in the centre at the level of the floor) ranged between 4 and 8 LUX.
The rats were pretreated with test compound or vehicle at 60 min before the start of the activity recordings and placed into individual cages. […]

Wiga rats = assay: Reserpine interaction test in rats; conditions: Route PO, Time 60, reserpine 10 mg/kg SC
Protocol: 4) Reserpine Interaction Test in Rats
It was investigated to what extent the mydriatic action of test compounds was sufficient to counteract the miosis induced by the monoamines-depleting agent reserpine (10 mg/kg; SC) in Wiga rats.
For instance, Co. No. 1 induced mydriasis before the reserpine challenge (ED50: 1.78 mg/kg s.c.; 1.55 mg/kg p.o., −1 h; 0.89 mg/kg, p.o., −4 h) and reversed the reserpine-induced ptosis (ED50: 1.03 mg/kg s.c.; 0.78 mg/kg p.o., −1 h; 0.78 mg/kg, p.o., −4 h), miosis (ED50: 4.1 mg/kg s.c.; 9.4 mg/kg p.o., −1 h; 9.4 mg/kg, p.o., −4 h) and sedation (ED50: 9.4 mg/kg s.c.; 7.1 mg/kg p.o., −1 h; 14 mg/kg, p.o., −4 h). The effects are illustrated in FIG. 3. […] The reference mGlu2 NAMs RO-4995819 (40 mg/kg, p.o.), RO-4491533 (40 mg/kg, p.o.; 10 mg/kg, s.c.) and [CAS 579473-69-1] (40 mg/kg, s.c.) were devoid of these interactions with reserpine.

Compound: Cc1cc(-c2cnn3c2C(=O)N(c2ccc(C(F)(F)F)cc2)C[C@H]3C)ccn1
- GTPγS - hmGluR2 anGT pIC50 (human mGlu2 receptor): 6.76
- GTPγS - hmGluR2 anGT Emax (human mGlu2 receptor): 105%
- ED50, reversal of the effect of JNJ 42153605 on scopolamine-induced hyperlocomotion (rats): > 10 mg/kg
- ED50, reversal of reserpine-induced ptosis (Wiga rats): 0.5 mg/kg

Compound: C[C@H]1CN(c2ccc(C(F)(F)F)cc2)C(=O)c2c(-c3ccnc(CO)c3)cnn21
- GTPγS - hmGluR2 anGT pIC50 (human mGlu2 receptor): 6.19
- GTPγS - hmGluR2 anGT Emax (human mGlu2 receptor): 103%

Compound: Cc1cc(-c2cnn3c2C(=O)N(c2ccc(C(F)(F)F)cc2)C[C@@H]3C)ccn1 [compound 1, (7S)-7-Methyl-3-(2-methylpyridin-4-yl)-5-[4-(trifluoromethyl)phenyl]-6,7-dihydropyrazolo[1,5-a]pyrazin-4(5H)-one]
- GTPγS - hmGluR2 anGT pIC50 (human mGlu2 receptor): 7.72
- GTPγS - hmGluR2 anGT Emax (human mGlu2 receptor): 103%

Compound: COCC1CN(c2ccc(C(F)(F)F)cc2)C(=O)c2c(-c3ccnc(C)c3)cnn21 (stereo not shown)
- GTPγS - hmGluR2 anGT pIC50 (human mGlu2 receptor): 7.02
- GTPγS - hmGluR2 anGT Emax (human mGlu2 receptor): 103%
